Apparent affinities of Ab-14 variants for a coronavirus HR2 peptide

Reference: Li et al. 2023, doi:10.1038/s41467-023-39022-2. File: FLAb, binding data.

Target peptide (SARS-CoV-2 spike, HR2 region): PDVDLGDISGINAS

The variants keep the light chain, the linker and the frameworks of Ab-14 (scFv order VH, a 15-residue (Gly4Ser)3 linker, VL).
VH: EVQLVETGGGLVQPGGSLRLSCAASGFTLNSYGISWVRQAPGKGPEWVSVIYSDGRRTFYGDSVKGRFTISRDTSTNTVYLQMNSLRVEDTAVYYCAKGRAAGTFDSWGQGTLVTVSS
VL: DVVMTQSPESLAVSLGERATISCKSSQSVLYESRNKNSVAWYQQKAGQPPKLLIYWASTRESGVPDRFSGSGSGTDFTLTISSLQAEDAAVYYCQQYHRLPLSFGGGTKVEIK

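The starting antibody came from a phage panning campaign against this peptide. Designed CDR sequences, proposed from the first random library and measured here. Their group label is 14H_En_Gibbs (En: ensemble of fine-tuned language models; Gibbs: Gibbs sampling). The scFvs were displayed on barcoded MATa yeast, the peptide on MATalpha yeast. The frequency of each diploid, read from paired DNA barcodes, reflects how well the two displayed proteins bind. Each replicate has its own calibration line, from reference interactions of the BCL2 family. Each pool was mated in six replicate cultures.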

Each variant is given by its three heavy chain CDRs, as the data file delimits them; those of the parent are GFTLNSYGIS, VIYSDGRRTFYGDSVK, GRAAGTFDS. Affinities are written as log10 Kd with Kd in nM; a lower number is a better binder. The mean shown is taken over the replicates in which the pair was detected. Where no diploid with the target was found in that replicate, the entry reads "ND": below detection, most likely a poor binder, though not proof of it.

{"CDR-H1": "GDNLDEYGIS", "CDR-H2": "VIYADGHRTAYSNPVK", "CDR-H3": "GEYGVTVGD", "log10 Kd (nM) by replicate": "ND / ND / ND / ND / ND / ND", "log10 Kd (nM), mean": "ND", "signal with controls": "0/18"}
{"CDR-H1": "GFELDEYGIS", "CDR-H2": "VIYADGTRKFYAQTVK", "CDR-H3": "GELSGMILD", "log10 Kd (nM) by replicate": "ND / ND / ND / ND / ND / ND", "log10 Kd (nM), mean": "ND", "signal with controls": "1/18 (1.47)"}
{"CDR-H1": "GFDLQEYGIS", "CDR-H2": "VIYADGVREAYRNSFK", "CDR-H3": "GQIAGTINS", "log10 Kd (nM) by replicate": "ND / ND / ND / 1.20 / ND / ND", "log10 Kd (nM), mean": "1.20", "signal with controls": "1/18 (2.00)"}
{"CDR-H1": "GKSLEEYGIS", "CDR-H2": "VIYADGQRTAYAETVK", "CDR-H3": "GNNGGVFIY", "log10 Kd (nM) by replicate": "ND / 0.95 / ND / ND / ND / ND", "log10 Kd (nM), mean": "0.95", "signal with controls": "0/18"}
{"CDR-H1": "GFKLDEYGIS", "CDR-H2": "VIYADGHRVAYSQKVK", "CDR-H3": "GDNVGNFFE", "log10 Kd (nM) by replicate": "ND / ND / ND / ND / ND / ND", "log10 Kd (nM), mean": "ND", "signal with controls": "0/18"}
{"CDR-H1": "GFGLMEYGIS", "CDR-H2": "VIYADGMRTSYSNSVK", "CDR-H3": "GALAGTFDE", "log10 Kd (nM) by replicate": "-0.14 / 0.14 / -0.86 / -0.29 / -0.41 / 0.78", "log10 Kd (nM), mean": "-0.13", "signal with controls": "0/18"}
{"CDR-H1": "GFQIDEYGIS", "CDR-H2": "VIYADGQRSAYSENVK", "CDR-H3": "GQHGGMTVS", "log10 Kd (nM) by replicate": "ND / ND / ND / ND / ND / ND", "log10 Kd (nM), mean": "ND", "signal with controls": "0/18"}
{"CDR-H1": "GFSIDEYGIS", "CDR-H2": "VIYADGNRSAYIDAVK", "CDR-H3": "GNYGSDFNE", "log10 Kd (nM) by replicate": "ND / ND / ND / ND / ND / ND", "log10 Kd (nM), mean": "ND", "signal with controls": "0/18"}
{"CDR-H1": "GFDLLEYGIS", "CDR-H2": "VIYADGMRVAYAKDVK", "CDR-H3": "GMFGEFTVD", "log10 Kd (nM) by replicate": "ND / ND / ND / ND / ND / ND", "log10 Kd (nM), mean": "ND", "signal with controls": "0/18"}
{"CDR-H1": "GFDINEYGVS", "CDR-H2": "VIYADGMRTYYDDKVK", "CDR-H3": "GSNGSMLLD", "log10 Kd (nM) by replicate": "ND / ND / ND / ND / ND / ND", "log10 Kd (nM), mean": "ND", "signal with controls": "1/18 (2.95)"}
{"CDR-H1": "GKSLDEYGIS", "CDR-H2": "VIYADGLRSVYANSVK", "CDR-H3": "GQFDDTKDL", "log10 Kd (nM) by replicate": "ND / ND / ND / ND / ND / ND", "log10 Kd (nM), mean": "ND", "signal with controls": "0/18"}
{"CDR-H1": "GVNLDEYGIS", "CDR-H2": "VIYADGQRTAYDDPVK", "CDR-H3": "GEQGGTVMV", "log10 Kd (nM) by replicate": "ND / ND / ND / ND / 1.37 / ND", "log10 Kd (nM), mean": "1.37", "signal with controls": "0/18"}
{"CDR-H1": "GFSLDDYGIS", "CDR-H2": "VIYADGRRTMYAESVK", "CDR-H3": "GQIAGSLSN", "log10 Kd (nM) by replicate": "0.35 / 0.38 / 0.20 / 0.09 / 0.30 / 0.42", "log10 Kd (nM), mean": "0.29", "signal with controls": "0/18"}
{"CDR-H1": "GNDLDEFGIS", "CDR-H2": "VIYADGSRASYADKVK", "CDR-H3": "GLNGGQLIV", "log10 Kd (nM) by replicate": "ND / ND / ND / ND / ND / ND", "log10 Kd (nM), mean": "ND", "signal with controls": "0/18"}
{"CDR-H1": "GFGLNEYGIS", "CDR-H2": "VIFADGQRKYYADNVK", "CDR-H3": "GHFGEDGVV", "log10 Kd (nM) by replicate": "ND / ND / ND / ND / ND / ND", "log10 Kd (nM), mean": "ND", "signal with controls": "1/18 (2.53)"}
{"CDR-H1": "GDSLEEYGIS", "CDR-H2": "VIYADGKRKAYKNKAK", "CDR-H3": "GQTAGYFDV", "log10 Kd (nM) by replicate": "ND / ND / ND / ND / ND / ND", "log10 Kd (nM), mean": "ND", "signal with controls": "0/18"}
{"CDR-H1": "GDDLQEYGIS", "CDR-H2": "VIYADGLRTAYGNKVK", "CDR-H3": "GGSNGLVTV", "log10 Kd (nM) by replicate": "ND / ND / ND / ND / ND / ND", "log10 Kd (nM), mean": "ND", "signal with controls": "0/18"}
{"CDR-H1": "GADINEYGIS", "CDR-H2": "VIYADGNRIAYQDQVK", "CDR-H3": "GTLAGSFDI", "log10 Kd (nM) by replicate": "0.42 / -0.87 / -0.25 / -0.26 / -0.55 / -0.25", "log10 Kd (nM), mean": "-0.30", "signal with controls": "0/18"}
{"CDR-H1": "GFDLEKYGIH", "CDR-H2": "VIYADGIRKSYSDSVK", "CDR-H3": "GDYSGTFYV", "log10 Kd (nM) by replicate": "ND / ND / ND / ND / ND / ND", "log10 Kd (nM), mean": "ND", "signal with controls": "1/18 (1.77)"}
{"CDR-H1": "GADIEEYGIS", "CDR-H2": "VIYADGVRKSYVNSFK", "CDR-H3": "GEVGGTFTN", "log10 Kd (nM) by replicate": "ND / ND / ND / 2.29 / ND / ND", "log10 Kd (nM), mean": "2.29", "signal with controls": "0/18"}
{"CDR-H1": "GFALNEYGIS", "CDR-H2": "VIYADGFRAAYTDKVK", "CDR-H3": "GVTVGNFSS", "log10 Kd (nM) by replicate": "0.29 / 0.30 / 0.21 / 0.38 / 0.18 / 0.59", "log10 Kd (nM), mean": "0.32", "signal with controls": "1/18 (1.72)"}
{"CDR-H1": "GEDLMEYGIS", "CDR-H2": "VIYADGKRFSYIDDVK", "CDR-H3": "GNSTGFLDV", "log10 Kd (nM) by replicate": "ND / ND / ND / ND / ND / ND", "log10 Kd (nM), mean": "ND", "signal with controls": "0/18"}
{"CDR-H1": "GFDLAEYGIS", "CDR-H2": "VIYADGSRTAYNQNVK", "CDR-H3": "GLGGDSFDI", "log10 Kd (nM) by replicate": "ND / ND / ND / ND / ND / ND", "log10 Kd (nM), mean": "ND", "signal with controls": "0/18"}
{"CDR-H1": "GFDLESYGIS", "CDR-H2": "VIYADGMRVSYTNNVK", "CDR-H3": "GQNVMISTA", "log10 Kd (nM) by replicate": "ND / ND / ND / ND / ND / ND", "log10 Kd (nM), mean": "ND", "signal with controls": "0/18"}
{"CDR-H1": "GFDLVEYGIS", "CDR-H2": "VIYADGQRTVYADTVK", "CDR-H3": "GHHGGIFDM", "log10 Kd (nM) by replicate": "0.31 / 0.32 / 0.05 / 0.07 / 0.10 / 0.22", "log10 Kd (nM), mean": "0.18", "signal with controls": "1/18 (2.36)"}
{"CDR-H1": "GFDINEMGIS", "CDR-H2": "VIYADGQRLAYAQEVK", "CDR-H3": "GENTGTFTE", "log10 Kd (nM) by replicate": "ND / ND / ND / ND / 1.87 / ND", "log10 Kd (nM), mean": "1.87", "signal with controls": "0/18"}
{"CDR-H1": "GNLLDEYGIS", "CDR-H2": "VIYADGKRTAYSDDVK", "CDR-H3": "DVGSNVLVD", "log10 Kd (nM) by replicate": "ND / ND / ND / ND / ND / ND", "log10 Kd (nM), mean": "ND", "signal with controls": "0/18"}
{"CDR-H1": "GFDLEEYGIS", "CDR-H2": "VIYADGVRTAYKNKVK", "CDR-H3": "GQIAGGQFD", "log10 Kd (nM) by replicate": "ND / ND / ND / ND / ND / ND", "log10 Kd (nM), mean": "ND", "signal with controls": "0/18"}
{"CDR-H1": "GFSIDEYGIS", "CDR-H2": "VIYADGVRTAVDPSVK", "CDR-H3": "GQMAAFFDK", "log10 Kd (nM) by replicate": "ND / ND / ND / ND / ND / ND", "log10 Kd (nM), mean": "ND", "signal with controls": "1/18 (1.76)"}
{"CDR-H1": "GFSLDEYGIS", "CDR-H2": "VIYADGQRKHYADSVK", "CDR-H3": "GLIDVYYFA", "log10 Kd (nM) by replicate": "ND / ND / ND / ND / ND / ND", "log10 Kd (nM), mean": "ND", "signal with controls": "0/18"}
{"CDR-H1": "GYSLEEYGIS", "CDR-H2": "VIYADGRRQAYADNVK", "CDR-H3": "GMSGNDGMF", "log10 Kd (nM) by replicate": "ND / ND / ND / ND / ND / ND", "log10 Kd (nM), mean": "ND", "signal with controls": "0/18"}
{"CDR-H1": "GFDIDEYGIS", "CDR-H2": "VIYADGQRKAYTENVK", "CDR-H3": "GRSGGMTVA", "log10 Kd (nM) by replicate": "ND / ND / ND / ND / ND / ND", "log10 Kd (nM), mean": "ND", "signal with controls": "0/18"}

Extract of 3 entries:

{"CDR-H1": "GFQIDEYGIS", "CDR-H2": "VIYADGQRSAYSENVK", "CDR-H3": "GQHGGMTVS", "log10 Kd (nM) by replicate": "ND / ND / ND / ND / ND / ND", "log10 Kd (nM), mean": "ND", "signal with controls": "0/18"}
{"CDR-H1": "GFDLEKYGIH", "CDR-H2": "VIYADGIRKSYSDSVK", "CDR-H3": "GDYSGTFYV", "log10 Kd (nM) by replicate": "ND / ND / ND / ND / ND / ND", "log10 Kd (nM), mean": "ND", "signal with controls": "1/18 (1.77)"}
{"CDR-H1": "GFELDEYGIS", "CDR-H2": "VIYADGTRKFYAQTVK", "CDR-H3": "GELSGMILD", "log10 Kd (nM) by replicate": "ND / ND / ND / ND / ND / ND", "log10 Kd (nM), mean": "ND", "signal with controls": "1/18 (1.47)"}

In the paper, a design with two or fewer of six values counts as a poor binder. Values of this round are not directly comparable with the first-round values of the same sequences. Empty control strains, which show no peptide, gave a signal in 1% of pairings with all heavy chain designs; the median was 2.08 and 95% of these signals were weaker than 0.84. No background was subtracted. The control count says in how many pairings with the empty strains this scFv gave a signal, with their mean in brackets.